# Reference: publication PMC10454678, “Synthesis of hydroxy benzoin/benzil analogs and investigation of their antioxidant, antimicrobial, enzyme inhibition, and cytotoxic activities” (Turkish Journal of Chemistry, 2021)
# Chains of the proteins cited; added tags and fusions are not shown. Residues count along the entry.
# UniProt P22303, 32-614, species assumed: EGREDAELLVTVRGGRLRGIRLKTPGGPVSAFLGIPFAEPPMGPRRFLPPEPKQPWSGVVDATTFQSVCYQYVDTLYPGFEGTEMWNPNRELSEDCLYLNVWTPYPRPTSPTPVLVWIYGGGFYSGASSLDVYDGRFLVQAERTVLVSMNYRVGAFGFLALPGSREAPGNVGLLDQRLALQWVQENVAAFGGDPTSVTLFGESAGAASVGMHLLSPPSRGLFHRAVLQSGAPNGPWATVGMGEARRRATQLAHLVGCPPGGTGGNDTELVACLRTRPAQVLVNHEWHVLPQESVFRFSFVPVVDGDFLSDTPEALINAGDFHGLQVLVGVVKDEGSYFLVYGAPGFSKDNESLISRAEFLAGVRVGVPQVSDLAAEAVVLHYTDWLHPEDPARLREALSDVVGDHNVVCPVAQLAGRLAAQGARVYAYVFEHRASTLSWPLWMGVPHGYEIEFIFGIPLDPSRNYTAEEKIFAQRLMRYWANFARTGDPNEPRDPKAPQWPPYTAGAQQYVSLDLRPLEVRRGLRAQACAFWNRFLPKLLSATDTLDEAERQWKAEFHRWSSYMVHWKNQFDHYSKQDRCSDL
# UniProt P06276, 29-602: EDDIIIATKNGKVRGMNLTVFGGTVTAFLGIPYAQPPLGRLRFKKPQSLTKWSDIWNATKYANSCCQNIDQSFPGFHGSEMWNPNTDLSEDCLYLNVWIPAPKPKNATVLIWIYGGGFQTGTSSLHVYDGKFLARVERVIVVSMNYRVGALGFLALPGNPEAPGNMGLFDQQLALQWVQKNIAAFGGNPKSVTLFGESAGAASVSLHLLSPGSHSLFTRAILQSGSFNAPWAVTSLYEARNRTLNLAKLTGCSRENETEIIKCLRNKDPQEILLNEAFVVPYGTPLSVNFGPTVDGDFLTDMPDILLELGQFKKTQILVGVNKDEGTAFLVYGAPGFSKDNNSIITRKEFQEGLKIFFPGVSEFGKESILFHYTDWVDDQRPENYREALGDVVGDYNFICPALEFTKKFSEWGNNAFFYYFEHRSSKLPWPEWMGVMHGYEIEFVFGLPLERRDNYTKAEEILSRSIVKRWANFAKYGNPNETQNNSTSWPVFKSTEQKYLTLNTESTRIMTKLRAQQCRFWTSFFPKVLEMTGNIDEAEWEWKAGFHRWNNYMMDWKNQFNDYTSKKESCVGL
# Columns and labels:
# acetylcholinesterase = acetylcholinesterase (Homo sapiens, UniProt P22303); assay type: biochemical; conditions: Tris-HCl pH 8.0, 25 °C, 405 nm
# butyrylcholinesterase = butyrylcholinesterase (Homo sapiens, UniProt P06276); assay type: biochemical; conditions: Tris-HCl pH 8.0, 25 °C, 405 nm
substance,measurement,setting,value
2-Hydroxy-1-(3-O- β -D-glucopyranosylphenyl)-2-(3-hydroxyphenyl)-ethanone; 2-Hydroxy-1-(3-hydroxyphenyl)-2-(3-O- β -D-glucopyranosylphenyl)ethanone [18a+b],AChE IC50,acetylcholinesterase,>1000 mg/L
same,BChE IC50,butyrylcholinesterase,462.26 mg/L
